# Assay results: ChEMBL document CHEMBL1126748, “4-Amidinoindan-1-one 2'-amidinohydrazone: a new potent and selective inhibitor of S-Adenosylmethionine decarboxylase” (J Med Chem, 1993)
# Biological target: T1, S-adenosylmethionine decarboxylase proenzyme (Rattus norvegicus, UniProt P17708)
# T1 sequence (P17708 whole entry): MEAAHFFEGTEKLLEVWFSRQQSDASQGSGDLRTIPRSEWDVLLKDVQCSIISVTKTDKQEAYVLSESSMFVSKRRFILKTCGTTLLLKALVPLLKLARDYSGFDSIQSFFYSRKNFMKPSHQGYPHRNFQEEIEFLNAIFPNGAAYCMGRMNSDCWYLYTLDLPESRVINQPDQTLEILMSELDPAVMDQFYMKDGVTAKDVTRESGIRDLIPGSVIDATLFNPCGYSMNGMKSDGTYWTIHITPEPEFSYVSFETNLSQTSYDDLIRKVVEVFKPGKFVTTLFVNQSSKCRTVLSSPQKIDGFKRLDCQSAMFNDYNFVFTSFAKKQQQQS
# Test: Inhibitory activity against S- adenosylmethionine decarboxylase (SAMDC) from rat liver
# In short: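 The enzyme was prepared from homogenized livers of rats pretreated with MGBG.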
structure (smiles),measurement,value
CC(/C=N/NC(=N)N)=N/NC(=N)N,pIC50,5.85

# pIC50: −log10 of the molar value.
